Data: US9376387B2 (priority 2013, dated 2016)
pIC50: −log10 of the molar value.

By UniProt entry, the sequences of proteins in these tests, tags left out. Where a name states a change or a piece, a line headed by the entry shows the natural chain unless it says otherwise.
UniProt P22303: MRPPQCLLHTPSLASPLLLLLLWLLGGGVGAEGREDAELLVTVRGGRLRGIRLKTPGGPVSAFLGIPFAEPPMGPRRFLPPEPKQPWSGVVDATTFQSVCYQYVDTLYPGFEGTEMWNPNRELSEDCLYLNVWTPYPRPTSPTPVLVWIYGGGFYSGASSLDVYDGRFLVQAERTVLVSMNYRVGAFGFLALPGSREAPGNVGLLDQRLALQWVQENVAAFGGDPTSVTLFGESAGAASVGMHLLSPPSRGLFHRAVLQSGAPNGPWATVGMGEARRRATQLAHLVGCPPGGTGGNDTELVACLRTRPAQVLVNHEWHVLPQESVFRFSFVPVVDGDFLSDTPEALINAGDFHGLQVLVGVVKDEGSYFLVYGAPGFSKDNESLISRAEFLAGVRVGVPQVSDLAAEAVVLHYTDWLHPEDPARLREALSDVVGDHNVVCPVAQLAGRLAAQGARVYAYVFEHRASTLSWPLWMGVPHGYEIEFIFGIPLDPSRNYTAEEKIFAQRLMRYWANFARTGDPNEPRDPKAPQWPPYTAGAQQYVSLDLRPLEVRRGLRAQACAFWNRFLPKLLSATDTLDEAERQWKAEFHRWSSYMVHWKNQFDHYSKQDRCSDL

Molecular target: hAChE (human erythrocyte membranes as a AChE source) (Homo sapiens, UniProt P22303)
Assay: acetylcholinesterase (AChE) activity, modified Ellman method
Type: biochemical
Details: read-out: hAChE IC50, acetylthiocholine iodide substrate, pH=7.4

## COc1cc2c(cc1OC)C(=O)C(Cc1cc[n+](Cc3ccccc3C)cc1C(C)=O)C2.[Br-] (stereo not shown) [Compound 142, 2-[[3-acetyl-1-(o-tolylmethyl)pyridin-1-ium-4-yl]methyl]-5,6-dimethoxy-indan-1-one bromide]
  pIC50: 8.06
